Laboratory results: patent publication US8748462B2, “Spirocyclic GPR40 modulators” (Amgen Inc., priority 2008, dated 2014)

The chains behind the UniProt entries cited, without tags or fusion partners.
UniProt O14842, whole entry: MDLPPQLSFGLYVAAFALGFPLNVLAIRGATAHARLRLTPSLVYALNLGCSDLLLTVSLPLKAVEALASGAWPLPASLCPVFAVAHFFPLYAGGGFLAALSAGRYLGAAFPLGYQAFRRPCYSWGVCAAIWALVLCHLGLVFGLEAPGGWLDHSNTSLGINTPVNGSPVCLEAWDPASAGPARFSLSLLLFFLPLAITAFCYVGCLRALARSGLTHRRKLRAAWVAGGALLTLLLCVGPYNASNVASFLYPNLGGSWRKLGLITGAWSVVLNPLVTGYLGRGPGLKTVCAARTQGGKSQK

Experiments:
human GPR40 [1] = target: T1, human GPR40 (Homo sapiens, UniProt O14842); assay: Cell-based aequorin assay; conditions: read-out: Aequorin EC50; CHO cells stably transfected with GPR40 and aequorin; 0.01% HSA
human GPR40 [2] = target: T1, human GPR40; assay: Inositol phosphate accumulation assay; format: cell-based; conditions: read-out: IP3 EC50; A9 cell line stably transfected with GPR40; 1 hour at 37° C.

Structure (SMILES)	pEC50 (human GPR40 [1])	pEC50 (human GPR40 [2])
COc1ccc(F)c(-c2ccc(COc3ccc4c(c3)C3(CC4)C(C)C3C(=O)O)cc2C2CCCC2(C)C)c1 (single isomer, unassigned) [Example 141]	6.00 to 7.00	–
COc1ccc(F)c(-c2ccc(COc3ccc4c(c3)C3(CC4)C(C)C3C(=O)O)cc2C2CCCC2(C)C)c1 (single isomer, unassigned) [Example 142]	6.00 to 7.00	–
COc1ccc(F)c(-c2ccc(COc3ccc4c(c3)C3(CC4)C(C)C3C(=O)O)cc2C2CCCC2(C)C)c1 (single isomer, unassigned) [Example 143]	5.00 to 6.00	–
COc1ccc(F)c(-c2ccc(COc3ccc4c(c3)C3(CC4)C(C)C3C(=O)O)cc2C2CCCC2(C)C)c1 (single isomer, unassigned) [Example 144]	6.00 to 7.00	7.00 to 8.00

pEC50: −log10 of the molar value.
